# Molecular target: human carbonic anhydrase II (hCAII) (Homo sapiens, UniProt P00918)
# Assay: hCAII functional assay (pNP-OAc hydrolysis) with SABA-modified peptides
# Format: biochemical
# Conditions: native (unmodified) peptide
# Description: A functional assay for hCAII enzyme was set up. Carbonic anhydrase catalyzes the hydrolysis of 4-nitrophenyl acetate (4-NPA) to nitrophenol, which can be monitored by absorbance at 400 nm. The enzymatic carbonic anhydrase assay generally includes 0.2-1.0 μM enzyme and 10-500 μM 4-NPA in 20-200 μL in assay buffer. […] Metal chelating agents (EDTA or EGTA), salt (NaCl, sulfate), detergent (Tween or Triton), and organic additives (acetonitrile, DMSO) may be employed to facilitate enzyme stability and reagent solubility. For the assay, 1 μM human carbonic anhydrase II, 50 mM MOPS (pH 7.6), 33 mM disodium sulfate, and 1 mM EDTA. To generate NTM-modified peptides, azide-derivatized peptides (via azide-PEG-amine and carbodiimide coupling to C-terminus of peptide) were conjugated to DBCO-coupled beads. […] To evaluate P1 dependence of the binding reaction, multiple P1 residues has been tested.
compound,measurement,value
"C[C@H](NC(=O)[C@H](C)NC(=O)[C@@H](N)Cc1ccccc1)C(=O)N[C@@H](C)C(=O)N[C@@H](CCC(=O)O)C(=O)O [FAAAE, reference compound]",binding/inhibition,No significant binding/inhibition

# Reference: patent US12467928B2, “N-terminal modifier agents and binders for treating and analyzing peptides” (Encodia, Inc., priority 2023, dated 2025)
